Results: publication PMC4286194 (Biochemical Journal, 2015)

What was measured:
MKK1 = MKK1 (Homo sapiens, UniProt Q02750); assay: biochemical; settings: read-out: % activity remaining
PAK4 = PAK4 (Homo sapiens, UniProt O96013); assay: biochemical; settings: read-out: % activity remaining
MKK6 = MKK6 (Homo sapiens, UniProt P52564); assay: biochemical; settings: read-out: % activity remaining
JNK2 = JNK2 (Homo sapiens, UniProt P45984); assay: biochemical; settings: read-out: % activity remaining
ASK1 = ASK1 (Homo sapiens, UniProt Q99683); assay: biochemical; settings: read-out: % activity remaining
OSR1 = OSR1 (Homo sapiens, UniProt O95747); assay: biochemical; settings: read-out: % activity remaining
MST3 = MST3 (Homo sapiens, UniProt Q9Y6E0); assay: biochemical; settings: read-out: % activity remaining
ERK1 = ERK1 (Homo sapiens, UniProt P27361); assay: biochemical; settings: read-out: % activity remaining
MELK = MELK (Homo sapiens, UniProt Q14680); assay: biochemical; settings: read-out: % activity remaining
CK2 = CK2 (Homo sapiens, UniProt P68400); assay: biochemical; settings: read-out: % activity remaining
p38 delta MAPK = p38 delta MAPK (Homo sapiens, UniProt O15264); assay: biochemical; settings: read-out: % activity remaining
PAK2 = PAK2 (Homo sapiens, UniProt Q13177); assay: biochemical; settings: read-out: % activity remaining
NEK2a = NEK2a (Homo sapiens, UniProt P51955); assay: biochemical; settings: read-out: % activity remaining
TLK1 = TLK1 (Homo sapiens, UniProt Q9UKI8); assay: biochemical; settings: read-out: % activity remaining
EPH-B1 = EPH-B1 (Homo sapiens, UniProt P54762); assay: biochemical; settings: read-out: % activity remaining
GSK3 beta = GSK3 beta (Homo sapiens, UniProt P49841); assay: biochemical; settings: read-out: % activity remaining
PIM1 = PIM1 (Homo sapiens, UniProt P11309); assay: biochemical; settings: read-out: % activity remaining
MARK3 = MARK3 (Homo sapiens, UniProt P27448); assay: biochemical; settings: read-out: % activity remaining
WNK1 = WNK1 (Homo sapiens, UniProt Q9H4A3); assay: biochemical; settings: read-out: % activity remaining
JNK3 = JNK3 (Homo sapiens, UniProt P53779); assay: biochemical; settings: read-out: % activity remaining
EPH-A4 = EPH-A4 (Homo sapiens, UniProt P54764); assay: biochemical; settings: read-out: % activity remaining
DYRK2 = DYRK2 (Homo sapiens, UniProt Q92630); assay: biochemical; settings: read-out: % activity remaining
DYRK1A = DYRK1A (Homo sapiens, UniProt Q13627); assay: biochemical; settings: read-out: % activity remaining
ERK2 = ERK2 (Homo sapiens, UniProt P28482); assay: biochemical; settings: read-out: % activity remaining
SRPK1 = SRPK1 (Homo sapiens, UniProt Q96SB4); assay: biochemical; settings: read-out: % activity remaining
CK1 delta = CK1 delta (Homo sapiens, UniProt P48730); assay: biochemical; settings: read-out: % activity remaining
NEK6 = NEK6 (Homo sapiens, UniProt Q9HC98); assay: biochemical; settings: read-out: % activity remaining
MAPKAP-K2 = MAPKAP-K2 (Homo sapiens, UniProt P49137); assay: biochemical; settings: read-out: % activity remaining
TTK = TTK (Homo sapiens, UniProt P33981); assay: biochemical; settings: read-out: % activity remaining
MARK4 = MARK4 (Homo sapiens, UniProt Q96L34); assay: biochemical; settings: read-out: % activity remaining
PIM3 = PIM3 (Homo sapiens, UniProt Q86V86); assay: biochemical; settings: read-out: % activity remaining
SYK = SYK (Homo sapiens, UniProt P43405); assay: Kinase profiling; settings: read-out: % activity remaining
ROCK 2 = ROCK 2 (Rattus norvegicus, UniProt Q62868); assay: Kinase profiling; settings: read-out: % activity remaining
JNK1 = JNK1 (Homo sapiens, UniProt P45983); assay: biochemical; settings: read-out: % activity remaining
CDK2-Cyclin A = CDK2-Cyclin A (Homo sapiens, UniProt P24941); assay: biochemical; settings: read-out: % activity remaining
ERK8 = ERK8 (Homo sapiens, UniProt Q8TD08); assay: biochemical; settings: read-out: % activity remaining
DAPK1 = DAPK1 (Homo sapiens, UniProt P53355); assay: biochemical; settings: read-out: % activity remaining
AMPK = assay: Kinase profiling; type: biochemical; settings: 1 µM
SIK3 = SIK3 (Homo sapiens, UniProt Q9Y2K2); assay: Kinase profiling; settings: read-out: % activity remaining

## Cc1nc(Nc2ncc(C(=O)Nc3c(C)cccc3Cl)s2)cc(N2CCN(CCO)CC2)n1 [Dasatinib]
MKK1
  remaining activity at 0.1 µM: 118 ± 10%
  remaining activity at 1 µM: 134 ± 16%
PAK4
  remaining activity at 0.1 µM: 137 ± 21%
  remaining activity at 1 µM: 132 ± 16%
MKK6
  remaining activity at 0.1 µM: 104 ± 11%
  remaining activity at 1 µM: 112 ± 4%
JNK2
  remaining activity at 1 µM: 125%
ASK1
  remaining activity at 0.1 µM: 108 ± 7%
  remaining activity at 1 µM: 118 ± 7%
OSR1
  remaining activity at 0.1 µM: 100 ± 1%
MST3
  remaining activity at 0.1 µM: 114 ± 20%
  remaining activity at 1 µM: 93 ± 2%
ERK1
  remaining activity at 1 µM: 114 ± 12%
MELK
  remaining activity at 0.1 µM: 112 ± 7%
  remaining activity at 1 µM: 128 ± 7%
CK2
  remaining activity at 1 µM: 80 ± 28%
p38 delta MAPK
  remaining activity at 0.1 µM: 118 ± 17%
  remaining activity at 1 µM: 133 ± 1%
PAK2
  remaining activity at 0.1 µM: 118 ± 2%
  remaining activity at 1 µM: 119 ± 12%
NEK2a
  remaining activity at 0.1 µM: 122 ± 11%
TLK1
  remaining activity at 1 µM: 124%
EPH-B1
  remaining activity at 0.1 µM: -1 ± 1%
  remaining activity at 1 µM: -1 ± 2%
GSK3 beta
  remaining activity at 1 µM: 121 ± 12%
PIM1
  remaining activity at 0.1 µM: 90 ± 1%
MARK3
  remaining activity at 1 µM: 104 ± 5%
WNK1
  remaining activity at 0.1 µM: 104 ± 4%
  remaining activity at 1 µM: 104 ± 12%
JNK3
  remaining activity at 0.1 µM: 108%
  remaining activity at 1 µM: 113 ± 15%
EPH-A4
  remaining activity at 0.1 µM: 2%
  remaining activity at 1 µM: 2 ± 2%
DYRK2
  remaining activity at 1 µM: 117 ± 9%
DYRK1A
  remaining activity at 0.1 µM: 111 ± 4%
  remaining activity at 1 µM: 126 ± 19%
ERK2
  remaining activity at 0.1 µM: 93 ± 9%
SRPK1
  remaining activity at 0.1 µM: 104 ± 9%
CK1 delta
  remaining activity at 0.1 µM: 113 ± 4%
  remaining activity at 1 µM: 124 ± 1%
NEK6
  remaining activity at 0.1 µM: 113 ± 4%
  remaining activity at 1 µM: 123 ± 6%
MAPKAP-K2
  remaining activity at 0.1 µM: 114 ± 4%
  remaining activity at 1 µM: 111 ± 7%
TTK
  remaining activity at 0.1 µM: 104 ± 6%
  remaining activity at 1 µM: 109 ± 9%
MARK4
  remaining activity at 1 µM: 115 ± 24%
PIM3
  remaining activity at 1 µM: 108 ± 5%
SYK
  remaining activity at 1 µM: 90%
ROCK 2
  remaining activity at 0.1 µM: 130 ± 10%
  remaining activity at 1 µM: 132 ± 7%
JNK1
  remaining activity at 0.1 µM: 108 ± 4%
  remaining activity at 1 µM: 121 ± 9%
CDK2-Cyclin A
  remaining activity at 0.1 µM: 116 ± 1%
  remaining activity at 1 µM: 112 ± 1%
ERK8
  remaining activity at 0.1 µM: 90 ± 14%
DAPK1
  remaining activity at 0.1 µM: 126 ± 10%
AMPK
  % activity remaining: 120 ± 5%

## COc1cc(Nc2c(C#N)cnc3cc(OCCCN4CCN(C)CC4)c(OC)cc23)c(Cl)cc1Cl [Bosutinib, bosutinib]
SIK3
  remaining activity at 0.1 µM: 9%
  remaining activity at 1 µM: 2%
SYK
  remaining activity at 1 µM: 39 ± 1%
AMPK
  % activity remaining: 26 ± 2%
